According to patent US8017326B2, “Methods of modulating cell death based on the Bit-1/AES regulatory pathway” (Sanford-Burnham Medical Research Institute, priority 2002, dated 2011):

What was measured:
Format in all cases: cell-based, human
[1] = test system: AES-induced apoptosis in 293T cells; experiment: Caspase inhibitors and anti-apoptotic proteins against AES
Description: (§1) Results from these experiments indicated no increase of 85-kD PARP apoptotic fragment in the lysates, indicating lack of caspase activation. 293T cells were also co-transfected with Bit1 or AES and the caspase inhibitor proteins crmA and XIAP. […] A chemical pan-caspase inhibitor, z-VAD-fmk, was also ineffective against Bit1 and AES.

[2] = test system: Bit1-induced apoptosis in HEK 293 cells; experiment: Co-transfection of Bit1 with anti-apoptotic proteins; conditions: HEK 293 cells co-transfected with Bit1
Experimental: HEK 293 cells also were co-transfected with Bit1 and an activated form of PI3K, or Bcl-2 or Bcl-xL or one of various caspase inhibitors (XIAP, p35 or CrmA).
Co-transfections were performed with cells plated on non-coated dishes transfected with 5 μg Bit1 plasmid alone or together with 10 μg dominant negative (DN) R-Ras, or activated H-Ras plasmid (Zou et al., Proc. Natl. Acad. Sci. USA 96: 13813-13818 (1999)). Cells were transfected as described above with expression constructs pcDNA3-Bcl-2, Bcl-xL, p35, CrmA or XIAP provided by Dr. Guy Salvesen (The Burnham Institute), and described in Ryan et al., Immediate publication, DOI 10:1042/BJ20020863 (2002); Deveraux et al., EMBO J. 18:5242 (1999); and Cardone et al., Science 282: 1318 (1998). Expression of the transfected proteins was confirmed by immunoblotting. Apoptosis was assayed as described above.

[3] = test system: Bit1-induced apoptosis in 293T cells; experiment: Caspase inhibitors and anti-apoptotic proteins against Bit1; conditions: cytosolic Bit1
Description: as §1

Substance: XIAP: caspase inhibitor protein, transfected expression construct
- effect on apoptosis induced by AES [1]: no effect
- effect on apoptosis induced by Bit1 [2]: little or no effect
- effect on apoptosis induced by Bit1 [3]: no effect
